{
  "sequences": {"note": "Protein sequences, listed by entry. Tags and fused reporters are not part of them. Lines headed by an entry give the natural chain unless they say otherwise; changes in a name come on top.", "UniProt P08253": "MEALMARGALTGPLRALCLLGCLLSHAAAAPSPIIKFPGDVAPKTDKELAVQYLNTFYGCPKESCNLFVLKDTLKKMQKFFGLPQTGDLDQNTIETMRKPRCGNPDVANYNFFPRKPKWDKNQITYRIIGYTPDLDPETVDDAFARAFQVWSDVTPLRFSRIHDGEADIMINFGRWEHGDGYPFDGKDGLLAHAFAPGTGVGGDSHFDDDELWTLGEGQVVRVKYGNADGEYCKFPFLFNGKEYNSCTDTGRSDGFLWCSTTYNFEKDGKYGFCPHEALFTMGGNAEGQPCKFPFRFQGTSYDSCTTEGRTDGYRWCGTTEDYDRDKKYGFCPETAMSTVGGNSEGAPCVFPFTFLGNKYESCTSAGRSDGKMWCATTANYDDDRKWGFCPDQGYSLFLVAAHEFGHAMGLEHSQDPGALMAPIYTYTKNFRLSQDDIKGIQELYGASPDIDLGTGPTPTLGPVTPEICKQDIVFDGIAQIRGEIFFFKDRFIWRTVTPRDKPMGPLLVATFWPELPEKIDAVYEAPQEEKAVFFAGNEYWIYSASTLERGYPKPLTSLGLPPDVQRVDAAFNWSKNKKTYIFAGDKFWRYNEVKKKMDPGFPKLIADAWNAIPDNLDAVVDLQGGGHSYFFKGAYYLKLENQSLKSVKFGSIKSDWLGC"},
  "source": "ChEMBL document CHEMBL1914429",
  "about": "“Potent and selective 2-naphthylsulfonamide substituted hydroxamic acid inhibitors of matrix metalloproteinase-13” (Bioorg Med Chem Lett, 2011)",
  "biological_target": "72 kDa type IV collagenase (Homo sapiens, UniProt P08253)",
  "note": "pIC50: −log10 of the molar value.",
  "data": [
    {"smiles": "CC(C)[C@H](C(=O)NO)N(Cc1cccnc1)S(=O)(=O)c1ccc2ccccc2c1", "values": [
      {"measurement": "pIC50", "result": 7.60}
    ]}
  ]
}
